Test [1] deals with ROCK2 (Homo sapiens, UniProt O75116). As to the kind of experiment: ROCK2 inhibition assay (ADP-Glo kinase assay, called ROCK2 binding activity). The settings on record: read-out: ROCK 2 (IC50 category), 20 μM ATP, 1 hour pre-incubation. Format: biochemical. As to the method: ROCK2 Binding Activity: Assay for ROCK2 inhibition was performed using the protein construct N-terminal 6His-tagged ROCK2 catalytic domain 11-552 (Dundee University, UK). Protein was purified from a baculovirus expression system. Long S6 peptide ([…]) was used as substrate. Kinase reactions were carried out in 15 μl volume in a 96-well plate (black, half area) using 1.25 nM constitutively active ROCK2 kinase, 100 μM long S6 peptide, 20 μM ATP and test compound in DMSO (or DMSO only for controls). The final concentration of DMSO was 1%. Assay buffer was 50 mM HEPES pH 7.5 supplemented with 0.2 mM EDTA, 10 mM magnesium acetate, 0.01% Tween-20, 1 mM DTT and 0.01% BSA. Test compounds were pre-incubated with ROCK2 kinase for 1 hour before addition of ATP and long S6 peptide. After incubation for a further 1 hour, the amount of ADP produced was measured using ADP-Glo Kinase Assay (Promega) as per manufacturer's instructions. The luminescence was measured on a PHERAstar FS (BMG Labtech). The concentration of test compound required to inhibit ADP production by 50% (the IC50) was calculated using a four-parameter logistic function with software by Dotmatics. […] The category “+” refers to compounds with a ROCK2 or ROCK1 IC50 value of >10 μM. The category “++” refers to compounds with a ROCK2 or ROCK1 IC50 value of 10 to 3 μM. […]
Background: In ADP-Glo the light output rises with the ADP produced.

By UniProt entry, the sequences of proteins in these tests, tags left out. Residues count along the entry.
UniProt O75116, 11-552 limits assumed: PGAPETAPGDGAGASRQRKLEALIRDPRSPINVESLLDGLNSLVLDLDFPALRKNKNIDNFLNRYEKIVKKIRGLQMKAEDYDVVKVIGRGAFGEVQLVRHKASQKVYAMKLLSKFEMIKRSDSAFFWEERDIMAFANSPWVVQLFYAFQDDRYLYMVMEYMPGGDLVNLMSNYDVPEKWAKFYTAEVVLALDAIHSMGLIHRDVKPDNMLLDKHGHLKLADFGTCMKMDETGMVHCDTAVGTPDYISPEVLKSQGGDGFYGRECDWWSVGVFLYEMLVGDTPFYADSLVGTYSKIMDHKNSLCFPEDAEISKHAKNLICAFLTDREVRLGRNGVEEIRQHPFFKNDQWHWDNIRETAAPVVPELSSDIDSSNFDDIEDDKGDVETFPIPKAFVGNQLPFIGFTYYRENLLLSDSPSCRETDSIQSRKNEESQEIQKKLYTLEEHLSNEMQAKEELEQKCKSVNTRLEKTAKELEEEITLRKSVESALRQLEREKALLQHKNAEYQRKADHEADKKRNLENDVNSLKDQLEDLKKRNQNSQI
UniProt Q13464, whole entry: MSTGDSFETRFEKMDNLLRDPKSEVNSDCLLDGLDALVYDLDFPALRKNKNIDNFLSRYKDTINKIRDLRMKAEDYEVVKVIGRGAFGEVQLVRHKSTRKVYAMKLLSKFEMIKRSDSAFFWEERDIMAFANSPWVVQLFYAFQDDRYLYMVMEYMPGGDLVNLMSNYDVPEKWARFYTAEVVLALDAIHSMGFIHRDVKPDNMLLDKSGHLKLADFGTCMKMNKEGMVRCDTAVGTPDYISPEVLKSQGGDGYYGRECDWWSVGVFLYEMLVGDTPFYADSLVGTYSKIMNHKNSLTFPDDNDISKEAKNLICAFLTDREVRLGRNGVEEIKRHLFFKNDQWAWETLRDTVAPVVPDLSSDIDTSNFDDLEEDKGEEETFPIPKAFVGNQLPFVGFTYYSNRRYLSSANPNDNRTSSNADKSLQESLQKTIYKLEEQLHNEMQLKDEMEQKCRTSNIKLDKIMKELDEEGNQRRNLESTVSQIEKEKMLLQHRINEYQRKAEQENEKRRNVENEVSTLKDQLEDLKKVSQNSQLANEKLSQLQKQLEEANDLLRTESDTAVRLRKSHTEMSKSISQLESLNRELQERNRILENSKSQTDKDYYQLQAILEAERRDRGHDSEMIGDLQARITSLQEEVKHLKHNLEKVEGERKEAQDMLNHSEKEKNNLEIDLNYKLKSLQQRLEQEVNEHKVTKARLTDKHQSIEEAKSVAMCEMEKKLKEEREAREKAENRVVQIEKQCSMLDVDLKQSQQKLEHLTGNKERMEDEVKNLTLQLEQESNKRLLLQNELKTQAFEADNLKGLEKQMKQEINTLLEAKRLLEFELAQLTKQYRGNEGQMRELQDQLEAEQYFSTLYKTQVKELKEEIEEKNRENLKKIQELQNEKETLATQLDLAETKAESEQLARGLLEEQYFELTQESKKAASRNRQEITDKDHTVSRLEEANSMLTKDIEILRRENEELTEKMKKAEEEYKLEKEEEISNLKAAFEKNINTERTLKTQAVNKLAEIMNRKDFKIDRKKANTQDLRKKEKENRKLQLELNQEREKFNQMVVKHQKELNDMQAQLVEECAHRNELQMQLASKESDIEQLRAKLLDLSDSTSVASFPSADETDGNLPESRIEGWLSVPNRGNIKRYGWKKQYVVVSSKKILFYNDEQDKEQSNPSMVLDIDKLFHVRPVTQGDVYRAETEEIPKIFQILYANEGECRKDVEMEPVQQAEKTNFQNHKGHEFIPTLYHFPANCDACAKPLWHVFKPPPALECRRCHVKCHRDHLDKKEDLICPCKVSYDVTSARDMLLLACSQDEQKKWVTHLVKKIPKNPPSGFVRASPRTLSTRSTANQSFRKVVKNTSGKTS

For test [2], the target named is ROCK1 (Homo sapiens, UniProt Q13464). The experiment in a line: ROCK1 inhibition assay (ROCK1 binding activity, as determined by the assay described for ROCK2). The class given is biochemical. The settings on record: read-out: ROCK 1 (IC50 category). Here is the method:
Assay for ROCK2 inhibition was performed using the protein construct N-terminal 6His-tagged ROCK2 catalytic domain 11-552 (Dundee University, UK). Protein was purified from a baculovirus expression system. Long S6 peptide ([…]) was used as substrate. Kinase reactions were carried out in 15 μl volume in a 96-well plate (black, half area) using 1.25 nM constitutively active ROCK2 kinase, 100 μM long S6 peptide, 20 μM ATP and test compound in DMSO (or DMSO only for controls). The final concentration of DMSO was 1%. Assay buffer was 50 mM HEPES pH 7.5 supplemented with 0.2 mM EDTA, 10 mM magnesium acetate, 0.01% Tween-20, 1 mM DTT and 0.01% BSA. Test compounds were pre-incubated with ROCK2 kinase for 1 hour before addition of ATP and long S6 peptide. After incubation for a further 1 hour, the amount of ADP produced was measured using ADP-Glo Kinase Assay (Promega) as per manufacturer's instructions. The luminescence was measured on a PHERAstar FS (BMG Labtech). The concentration of test compound required to inhibit ADP production by 50% (the IC50) was calculated using a four-parameter logistic function with software by Dotmatics. […] The category “+” refers to compounds with a ROCK2 or ROCK1 IC50 value of >10 μM. The category “++” refers to compounds with a ROCK2 or ROCK1 IC50 value of 10 to 3 μM. The category “+++” refers to compounds with a ROCK1 or ROCK2 IC50 value of 3 to 0.3 μM. […]

In general, IC50 refers to the point on the concentration scale where inhibition reaches its midpoint. `CCn1nc(-c2ccc(-c3ccc(C)nc3)c(F)c2)nc1Nc1ccc2c(c1)CNC2=O`: the results for the IC50 in test [1] and in test [2] were less than 0.3 µM and more than 10 µM, respectively.
